# Tests used:
# Sequences of proteins named here, by UniProt entry; tags and fusion partners are left off.
# UniProt P00750, whole entry: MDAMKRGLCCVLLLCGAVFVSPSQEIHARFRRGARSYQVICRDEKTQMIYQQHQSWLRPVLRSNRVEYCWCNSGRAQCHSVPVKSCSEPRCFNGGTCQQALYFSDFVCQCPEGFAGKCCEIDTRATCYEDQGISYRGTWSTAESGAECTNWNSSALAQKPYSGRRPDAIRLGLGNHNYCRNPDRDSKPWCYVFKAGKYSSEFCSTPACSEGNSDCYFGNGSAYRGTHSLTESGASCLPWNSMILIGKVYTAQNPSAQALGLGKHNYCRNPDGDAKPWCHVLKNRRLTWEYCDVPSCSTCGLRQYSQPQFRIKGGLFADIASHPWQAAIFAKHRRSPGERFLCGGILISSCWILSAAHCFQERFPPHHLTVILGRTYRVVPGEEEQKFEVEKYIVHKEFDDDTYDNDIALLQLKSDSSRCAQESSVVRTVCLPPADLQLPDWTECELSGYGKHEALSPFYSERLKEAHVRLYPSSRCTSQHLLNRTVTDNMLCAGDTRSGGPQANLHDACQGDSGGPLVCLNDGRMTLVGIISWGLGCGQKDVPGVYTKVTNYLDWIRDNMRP
# [1] = target: Tissue-type plasminogen activator (Homo sapiens, UniProt P00750); test: Inhibitory activity of compound against tissue type plasminogen activator
# [2] = target: Plasminogen (Homo sapiens) (UniProt P00747); test: Inhibitory activity of compound against plasmin
compound,measurement,setting,value
Cc1cc(C(=O)Nc2ccc(C3=NCCN3C)cc2F)n(-c2cc3ccccc3cc2F)n1,IC50,[1],> 10 µM
same,IC50,[2],> 10 µM
